Data taken from patent publication US4588580A.
Only a part of the results on these compounds is given; other tests are left out.

How the values were obtained:
[1] = permeability of normal human skin to fentanyl
[2] = drug binding in skin (fentanyl binding sites); conditions: variation between individuals and sites; base form
[3] = solubility, saturation concentration and activity of drug in the reservoir

In the case of CCC(=O)N(c1ccccc1)C1CCN(CCc2ccccc2)CC1, the “skin permeability (in words)” value ([1]; fentanyl citrate) is reported as “such a low skin permeability that it is not at all suitable for transdermal delivery even with the use of permeation enhancers”, the “skin permeability, mean ± S.D.” value ([1]; normal human skin, fentanyl base) is reported as “approximately 4±1.8 μg/cm^2 /hr” and the “skin permeability, most skin” value ([1]; normal skin, most skin) is reported as 2-5 μg/cm^2 /hr. The “amount of drug in skin binding sites to be saturated before significant absorption” value [2] was 25-75 μg/cm^2, the “solubility in ethanol versus water (in words)” value ([3]; ethanol vs water) was “substantially more soluble in ethanol than water” and the saturation concentration ([3]; fentanyl in 30% ethanol) was 8.8 mg/g.
